Earlier results in patent publication US20170298446A1, “BIOMARKERS OF BRUTON TYROSINE KINASE INHIBITOR RESISTANCE” (OHIO STATE INNOVATION FOUNDATION, priority 2014, published 2017).

Sequences of proteins named here, by UniProt entry; tags and fusion partners are left off. A change or cut given only in a name is not applied to a line headed by its entry.
UniProt Q06187: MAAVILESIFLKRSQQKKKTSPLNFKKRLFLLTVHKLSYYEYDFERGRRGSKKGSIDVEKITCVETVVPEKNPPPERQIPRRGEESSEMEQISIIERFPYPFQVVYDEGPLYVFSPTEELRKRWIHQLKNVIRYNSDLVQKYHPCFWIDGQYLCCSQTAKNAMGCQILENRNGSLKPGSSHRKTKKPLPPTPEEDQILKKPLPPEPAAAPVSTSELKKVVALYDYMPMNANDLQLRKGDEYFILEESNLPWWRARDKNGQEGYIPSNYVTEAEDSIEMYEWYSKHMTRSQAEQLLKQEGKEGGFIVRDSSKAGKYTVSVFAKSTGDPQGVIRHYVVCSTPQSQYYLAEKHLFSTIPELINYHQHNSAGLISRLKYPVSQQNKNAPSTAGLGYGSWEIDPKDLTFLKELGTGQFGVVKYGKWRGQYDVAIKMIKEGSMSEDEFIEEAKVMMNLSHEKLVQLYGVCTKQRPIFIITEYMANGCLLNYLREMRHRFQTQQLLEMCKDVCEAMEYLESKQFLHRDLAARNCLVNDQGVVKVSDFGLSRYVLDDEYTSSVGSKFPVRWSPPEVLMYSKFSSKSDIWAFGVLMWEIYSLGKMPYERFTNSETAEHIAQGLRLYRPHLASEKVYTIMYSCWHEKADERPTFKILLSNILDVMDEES

Target: BTK (Homo sapiens, UniProt Q06187)
Details: biochemical kinase / enzymology assays; read-out: IC50 against BTK

IC50: < 500 pM
Structure (SMILES): C=CC(=O)Nc1cccc(Nc2nc(Nc3ccc(OCCOC)cc3)ncc2F)c1 [CC-292, N-(3-((5-fluoro-2-((4-(2-methoxyethoxy)phenyl)amino)pyrimidin-4-yl)amino)phenyl)acrylamide]
